Reported Henry's law constant values for industrial, environmental and drug-like chemicals

The Henry's law constant is on a log10 scale in atm·m3/mol (set defined at 25 °C); higher favours air over water. Cells with "–" have no entry in this list.

compound | name | log Henry constant (log10 atm·m3/mol)
Cc1cc(C)c(C2=C(OC(=O)CC(C)(C)C)C3(CCCC3)OC2=O)c(C)c1 | Spiromesifen | -6.705
Cc1ccccc1C(=O)Nc1cccc(OC(C)C)c1 | Mepronil | -7.93
C1=CC2C3C=CC(C3)C2C1 (configuration not stated) | Dicyclopentadiene | -1.201
CCC1(C(=O)NC(C)c2ccc(Cl)cc2)C(C)C1(Cl)Cl (configuration not stated) | Carpropamid | -8.353
O=C(NC(=O)c1c(F)cccc1F)Nc1cc(Cl)c(OC(F)(F)C(F)C(F)(F)F)cc1Cl (configuration not stated) | – | -6.473
COC(=O)C(C)N(C(=O)c1ccco1)c1c(C)cccc1C (configuration not stated) | Furalaxyl | -9.037
CCCC(=NOCC)C1=C(O)CC(CC(C)SCC)CC1=O (configuration not stated) | Sethoxydim | -10.86
CCOP(=S)(OCC)OP(=S)(OCC)OCC | Sulfotepp | -5.353
C#CC(OC(=O)C1C(C=C(C)C)C1(C)C)/C(C)=C/CC (stereo partly drawn) | Empenthrin | -3.466
CN(C)C(O)=Nc1ccc(-n2nc(C(C)(C)C)oc2=O)c(Cl)c1 | Dimefuron | -7.679
CC(Oc1cccc(Cl)c1)C(=O)O (configuration not stated) | 2-(m-Chlorophenoxy)propionic acid | -7.783
CCOP(=O)(NC(C)C)Oc1ccc(S(C)=O)c(C)c1 (configuration not stated) | Fenamiphos sulfoxide | -9.438
CCOP(=S)(OCC)Oc1ccc(=O)n(-c2ccccc2)n1 | Pyridaphenthion | -10.31
COc1cc(C)c(C(=O)c2c(OC)ccc(Br)c2C)c(OC)c1OC | Metrafenone | -5.885
CC1(C)[C@H](C=C(Cl)Cl)[C@H]1C(=O)OCc1c(F)c(F)cc(F)c1F | Transfluthrin | -4.591
CC(C)=CC1C(C(=O)OCc2ccc(C)cc2C)C1(C)C (configuration not stated) | Dimethrin | -4.119
CC(C)OC(=O)C(C(=O)OC(C)C)=C1SCCS1 | Isoprothiolane | -6.006
Clc1cccc(C(Cl)(Cl)Cl)n1 | Nitrapyrin | -4.853
CCOC(=O)N(C)C(=O)CSP(=S)(OCC)OCC | Mecarbam | -9.046
COc1ccc(-c2ccccc2)cc1NNC(=O)OC(C)C | Bifenazate | -8.001
O=C(O)C(F)(F)C(F)(F)F | Perfluoropropanoic acid | -5.953
OC(Cn1cncn1)(c1ccc(F)cc1)c1ccccc1F (configuration not stated) | – | -10.9
CCOC(=O)c1cn2nc(OP(=S)(OCC)OCC)cc2nc1C | Pyrazophos | -8.594
NC(=S)c1c(Cl)cccc1Cl | Chlorthiamid | -9.555
CCOP(=O)(N=C1SCC(C)S1)OCC (configuration not stated) | Mephosfolan | -9.923
CN(C)NC(=O)CCC(=O)O | Daminozide | -6.85
COc1cc(OC)nc(NC(=O)NS(=O)(=O)c2ncccc2C(F)(F)F)n1 | Flazasulfuron | -10.59
CC(=NNC(=O)Nc1cc(F)cc(F)c1)c1ncccc1C(=O)O | Diflufenzopyr | -9.161
Cc1cc(C)nc(Nc2ccccc2)n1 | Pyrimethanil | -7.449
CCOCCN(C(=O)CCl)C(=C(C)C)c1ccccc1 | Pethoxamid | -10.12
COP(N)(=O)SC (configuration not stated) | Methamidophos | -10.8
CCCSP(=S)(OCC)Oc1ccc(SC)cc1 (configuration not stated) | Sulprofos | -6.066
CCc1ccc(C(=O)NN(C(=O)c2cc(C)cc(C)c2)C(C)(C)C)cc1 | Tebufenozide | -9.187
CCOC(=O)COc1cc(-c2nn(C)c(OC(F)F)c2Cl)c(F)cc1Cl | Pyraflufen-ethyl | -9.663
C[C@H](Oc1ccc(Oc2nc3ccc(Cl)cc3o2)cc1)C(=O)N(C)c1ccccc1F | Metamifop | -6.203
COP(=S)(OC)Oc1c(Cl)cc(C)cc1Cl | Tolclofos-methyl | -5.438
Cc1cc(=O)[nH]o1 | Hymexazol | -8.86
O=C(NC(=O)c1c(F)cccc1F)Nc1ccc(Cl)c(Oc2ncc(C(F)(F)F)cc2Cl)c1 | Fluazuron | -10.52
CC(C)=C1OC(=O)N(c2cc(OC3CCCC3)c(Cl)cc2F)C1=O | Pentoxazone | -6.746
CNC(=O)ON=CC(C)(C)S(C)=O (configuration not stated) | Aldicarb sulfoxide | -9.014
CCOP(=S)(OCC)Oc1cnc2ccccc2n1 | Quinalphos | -7.334
CCCOP(=S)(OCCC)SCC(=O)N1CCCCC1C (configuration not stated) | Piperophos | -8.353
CCCCC(O)(Cn1cncn1)c1ccc(Cl)cc1Cl (configuration not stated) | Hexaconazole | -8.483
CNC(=O)N(C)c1nc2ccccc2s1 | Methabenzthiazuron | -7.298
O=C(O)c1c(Cl)ccc2cc(Cl)cnc12 | – | -6.435
CCOP(=S)(OCC)SCn1c(=O)oc2cc(Cl)ccc21 | Phosalone | -7.696
CCNC(=O)CSP(=S)(OC)OC | Ethoate-methyl | -4.552
CC(Cc1ccc(C(C)(C)C)cc1)CN1CCCCC1 (configuration not stated) | Fenpropidin | -3.976
Clc1ccccc1-c1nnc(-c2ccccc2Cl)nn1 | Clofentezine | -5.78

A selection of 8 entries from above:

| compound | name | log Henry constant (log10 atm·m3/mol) |
|---|---|---|
| Cc1cc(C)c(C2=C(OC(=O)CC(C)(C)C)C3(CCCC3)OC2=O)c(C)c1 | Spiromesifen | -6.705 |
| CCC1(C(=O)NC(C)c2ccc(Cl)cc2)C(C)C1(Cl)Cl (configuration not stated) | Carpropamid | -8.353 |
| O=C(NC(=O)c1c(F)cccc1F)Nc1cc(Cl)c(OC(F)(F)C(F)C(F)(F)F)cc1Cl (configuration not stated) | – | -6.473 |
| CN(C)C(O)=Nc1ccc(-n2nc(C(C)(C)C)oc2=O)c(Cl)c1 | Dimefuron | -7.679 |
| COc1cc(C)c(C(=O)c2c(OC)ccc(Br)c2C)c(OC)c1OC | Metrafenone | -5.885 |
| OC(Cn1cncn1)(c1ccc(F)cc1)c1ccccc1F (configuration not stated) | – | -10.9 |
| O=C(NC(=O)c1c(F)cccc1F)Nc1ccc(Cl)c(Oc2ncc(C(F)(F)F)cc2Cl)c1 | Fluazuron | -10.52 |
| O=C(O)c1c(Cl)ccc2cc(Cl)cnc12 | – | -6.435 |

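These are experimental values that the OPERA curators gathered from public databases to train and test their QSAR models. One number stands for a compound and property, with no spread given. Method and conditions are not stated for these values. Where a salt, mixture or single isomer is drawn, the source does not say that exactly this form was tested. Unmarked limits or estimates from the upstream databases cannot be ruled out.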

From the experimental data distributed with OPERA 2.9.